Amino acid sequences for entries named in this document (tags omitted).
UniProt P06493, whole entry: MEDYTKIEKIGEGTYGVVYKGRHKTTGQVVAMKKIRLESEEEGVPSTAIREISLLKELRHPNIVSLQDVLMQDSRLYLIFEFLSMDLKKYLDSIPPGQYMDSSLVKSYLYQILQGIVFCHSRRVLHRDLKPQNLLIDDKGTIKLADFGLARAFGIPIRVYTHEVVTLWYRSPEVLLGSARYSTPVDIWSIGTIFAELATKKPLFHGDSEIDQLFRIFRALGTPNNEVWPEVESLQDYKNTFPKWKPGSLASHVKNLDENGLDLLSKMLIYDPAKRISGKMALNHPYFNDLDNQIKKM

According to patent US12097261B2, “CDK2 degraders and uses thereof” (Kymera Therapeutics, Inc., priority 2021, dated 2024):

How the values were obtained:
[1] = target: CDK2 (Homo sapiens, UniProt P24941); assay: CDK2 degradation by immunoblotting in OVCAR-8 cells; details: read-out: CDK2 DC50, (OVCAR-8, 24 h)
Procedure: (§1) CDK2 and CDK1 Degradation by Immunoblotting
(§2) Ovarian cancer cell line OVCAR-8 were cultured in 12-well plates in complete growth medium. A serial dilution of each compound was added to individual wells from a 2× stock solution, and cells were cultured for 24 hours. Cells were collected by centrifugation, and cell pellets lysed with addition of chilled RIPA buffer supplemented with protease/phosphatase inhibitors followed by incubation for 20 minutes on ice. Lysates were clarified by centrifugation and 5×SDS loading buffer was added to the supernatant followed by heating to 100° C. for 10 minutes. An aliquot of the samples were separated by SDS-PAGE and transferred to a nitrocellulose membrane. Immunoblotting was performed according to standard procedures using anti-CDK2 primary antibody (Abcam ab32147) at 1:1000 dilution and IRDye 800CW goat anti-Rabbit secondary antibody (LICOR) and imaged using a LICOR Odyssey instrument. Blots were stained with anti-beta-Actin primary antibody (Cell Signaling Technology mAb #4970) for normalization. The normalized CDK2/Actin values were calculated as a percent of DMSO treated cells and plotted to determine the concentration at which 50% of CDK2 signal is decreased (DC50). The determination of CDK1 degradation was determined similarly using anti-CDK1 primary antibody (Abcam ab131450).

[2] = target: CDK1 (Homo sapiens, UniProt P06493); assay: CDK1 degradation by immunoblotting in OVCAR-8 cells; details: read-out: CDK1 DC50, (OVCAR-8, 24 h)
Procedure: as §1, §2

Q: What does the source list for `Cc1cc(S(=O)(=O)NCCOCCOCCOCCOCCCc2cccc3c2n(C)c(=O)n3C2CCC(=O)NC2=O)ccc1Nc1ncc2cc(C(F)F)c(=O)n([C@@H]3CCC[C@@]3(C)O)c2n1` (some centres unmarked)?
A: DC50 [1]: 10 to 100 nM; DC50 [2]: > 5000 nM
